Molecular target: T1, Sterol 26-hydroxylase, mitochondrial (Homo sapiens, UniProt Q02318)
T1 sequence (Q02318 whole entry): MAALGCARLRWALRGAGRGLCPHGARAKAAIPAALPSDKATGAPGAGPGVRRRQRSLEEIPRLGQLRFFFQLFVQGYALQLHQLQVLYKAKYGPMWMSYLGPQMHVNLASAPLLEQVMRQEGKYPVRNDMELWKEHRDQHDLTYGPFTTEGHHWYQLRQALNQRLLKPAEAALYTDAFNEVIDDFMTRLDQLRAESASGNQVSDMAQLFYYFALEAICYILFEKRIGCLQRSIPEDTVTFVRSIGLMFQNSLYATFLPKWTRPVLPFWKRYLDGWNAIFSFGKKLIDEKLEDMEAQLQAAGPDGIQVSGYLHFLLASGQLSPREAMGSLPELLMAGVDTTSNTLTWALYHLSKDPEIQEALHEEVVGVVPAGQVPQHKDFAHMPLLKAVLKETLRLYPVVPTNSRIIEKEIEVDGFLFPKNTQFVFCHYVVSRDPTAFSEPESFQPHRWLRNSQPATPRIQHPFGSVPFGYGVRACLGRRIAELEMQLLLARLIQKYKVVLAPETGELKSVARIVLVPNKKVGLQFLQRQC
Assay: Inhibition of human CYP27A1 hydroxylase expressed in V79 cells
Assay type: cell-based

IC50: > 1000 nM
SMILES: C=C1/C(=C\C=C2/CCC[C@]3(C)[C@@H]([C@H](C)CCS(=N)(=O)c4ccccc4)CC[C@@H]23)C[C@@H](O)C[C@@H]1O (stereo in doubt; 3a)

— ChEMBL document CHEMBL1149309, “Potent, selective and low-calcemic inhibitors of CYP24 hydroxylase: 24-sulfoximine analogues of the hormone 1alpha,25-dihydroxyvitamin D(3)” (J Med Chem, 2004)
